The values below come from patent US9410197B2, “Compound for sequencing by synthesis” (Roche Diagnostics Operations, Inc., priority 2013, dated 2016).

The target of this test is Therminator II DNA polymerase (Thermococcus sp., UniProt Q56366, A485L/D141A/E143A/Y409V).

In the case of “MR121-labelled 3′-O-Nitro-2′-deoxy-β-D-uridine triphosphate”, the “incorporation by Therminator II DNA polymerase” value (depending on the triphosphate concentration) is on record as “incorporated efficiently”. Besides, the “primer + dNTP MWfound” value (incorporation product, MWcalcd 5882.4, c(dNTP) 33.3 μM, PPiase Yes, 10 min, 62° C.) is recorded as 5881.8 DA. In addition, the “acceptance as substrate by Therminator II DNA polymerase” value (primer extension, 62° C.) is recorded as “accepted as substrates”. In addition, the “primer MWfound” value (unextended primer, MWcalcd 4759.2, c(dNTP) 33.3 μM, PPiase Yes, 10 min, 62° C.) is listed as 4758.4 DA.
